# Results from patent publication US9611221B2, “Histone demethylase inhibitors” (CELGENE QUANTICEL RESEARCH, INC., priority 2012, dated 2017).
# Amino acid sequences for entries named in this document (tags omitted). Residues count along the entry.
# UniProt P29375, 1-1090: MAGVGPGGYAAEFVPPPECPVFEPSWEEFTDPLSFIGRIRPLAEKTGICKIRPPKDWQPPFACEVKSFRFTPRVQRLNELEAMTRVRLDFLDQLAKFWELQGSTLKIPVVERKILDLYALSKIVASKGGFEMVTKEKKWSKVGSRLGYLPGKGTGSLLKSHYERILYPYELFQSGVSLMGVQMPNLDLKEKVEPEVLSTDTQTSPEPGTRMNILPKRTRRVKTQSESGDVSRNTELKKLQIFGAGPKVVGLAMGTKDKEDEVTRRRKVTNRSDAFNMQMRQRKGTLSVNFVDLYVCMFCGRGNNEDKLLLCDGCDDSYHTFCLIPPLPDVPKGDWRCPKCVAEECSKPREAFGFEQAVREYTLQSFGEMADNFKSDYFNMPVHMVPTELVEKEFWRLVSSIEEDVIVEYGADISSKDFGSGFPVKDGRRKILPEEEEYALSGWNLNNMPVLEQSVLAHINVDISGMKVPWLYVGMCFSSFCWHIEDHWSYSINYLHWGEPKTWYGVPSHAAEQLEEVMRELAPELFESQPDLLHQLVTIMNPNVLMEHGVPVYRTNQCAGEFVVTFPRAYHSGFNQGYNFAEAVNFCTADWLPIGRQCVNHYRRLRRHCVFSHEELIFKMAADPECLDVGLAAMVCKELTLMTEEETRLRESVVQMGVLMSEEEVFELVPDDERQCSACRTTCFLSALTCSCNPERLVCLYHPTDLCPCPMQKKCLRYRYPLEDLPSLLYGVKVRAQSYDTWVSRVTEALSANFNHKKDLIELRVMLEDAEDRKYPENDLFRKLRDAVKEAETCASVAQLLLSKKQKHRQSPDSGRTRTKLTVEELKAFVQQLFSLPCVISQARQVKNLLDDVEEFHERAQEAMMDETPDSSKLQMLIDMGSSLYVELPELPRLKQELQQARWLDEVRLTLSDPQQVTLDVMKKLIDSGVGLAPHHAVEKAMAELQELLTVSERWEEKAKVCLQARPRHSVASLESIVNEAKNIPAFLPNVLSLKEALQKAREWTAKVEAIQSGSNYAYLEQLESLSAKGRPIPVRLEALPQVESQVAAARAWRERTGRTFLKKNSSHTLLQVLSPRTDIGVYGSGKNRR
# UniProt Q9UGL1, 2-751: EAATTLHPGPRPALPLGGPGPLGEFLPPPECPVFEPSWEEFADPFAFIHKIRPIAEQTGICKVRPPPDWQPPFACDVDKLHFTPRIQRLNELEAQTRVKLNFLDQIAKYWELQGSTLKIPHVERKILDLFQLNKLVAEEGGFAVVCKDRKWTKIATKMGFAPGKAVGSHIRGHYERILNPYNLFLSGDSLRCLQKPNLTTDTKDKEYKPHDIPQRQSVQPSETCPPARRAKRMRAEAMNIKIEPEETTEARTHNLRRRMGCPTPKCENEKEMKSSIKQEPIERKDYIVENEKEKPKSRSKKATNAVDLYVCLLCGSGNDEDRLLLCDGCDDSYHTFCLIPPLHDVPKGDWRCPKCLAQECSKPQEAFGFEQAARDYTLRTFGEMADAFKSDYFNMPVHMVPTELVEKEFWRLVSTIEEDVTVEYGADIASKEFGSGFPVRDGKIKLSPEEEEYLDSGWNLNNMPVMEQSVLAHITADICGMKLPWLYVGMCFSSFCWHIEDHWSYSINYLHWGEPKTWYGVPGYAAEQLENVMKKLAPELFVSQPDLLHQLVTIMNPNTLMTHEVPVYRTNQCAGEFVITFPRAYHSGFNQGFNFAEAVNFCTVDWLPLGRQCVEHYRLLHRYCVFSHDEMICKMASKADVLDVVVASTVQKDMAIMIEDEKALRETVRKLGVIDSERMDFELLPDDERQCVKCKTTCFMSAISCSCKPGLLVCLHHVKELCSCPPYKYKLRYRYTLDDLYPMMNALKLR
# Key:
# [1] = target: Jarid1A (Homo sapiens (Human), UniProt P29375); assay: Jarid1A in vitro enzyme inhibition assay (TR-FRET); type: biochemical; details: 1 nM Jarid1A, 300 nM H3K4me3-biotin peptide, 2 μM alpha-ketoglutaric acid
# Description: This assay determines the ability of a test compound to inhibit Jarid1A, Jarid1B, and JMJD2C demethylase activity. Baculovirus expressed Jarid1A (GenBank Accession #NM_001042603, AA1-1090) was purchased from BPS Bioscience (Cat#50110). Baculovirus expressed Jarid1B (GenBank Accession #NM_006618, AA 2-751) was purchased from BPS Bioscience (Cat #50121) or custom made by MolecularThroughput. Baculovirus expressed JMJD2C (GenBank Accession #BC143571, AA 2-372) was purchased from BPS Bioscience (Cat#50105).
# The enzymatic assay of Jarid1A activity is based upon Time Resolved-Fluorescence Resonance Energy Transfer (TR-FRET) detection. The ability of test compounds to inhibit the activity of Jarid1A was determined in 384-well plate format under the following reaction conditions: 1 nM Jarid1A, 300 nM H3K4me3-biotin labeled peptide (Anaspec cat #64357), 2 μM alpha-ketoglutaric acid in assay buffer of 50 mM HEPES, pH7.3, 0.005% Brij35, 0.5 mM TCEP, 0.2 mg/ml BSA, 50 μM sodium L-ascorbate, and 2 μM ammonium iron(II) sulfate. Reaction product was determined quantitatively by TR-FRET after the addition of detection reagent Phycolink Streptavidin-allophycocyanin (Prozyme) and Europium-anti-mono- or di-methylated histone H3 lysine 4 (H3K4me1-2) antibody (PerkinElmer) in the presence of 5 mM EDTA in LANCE detection buffer (PerkinElmer) at a final concentration of 25 nM and 1 nM, respectively. […]
# [2] = target: Jarid1B (Homo sapiens (Human), UniProt Q9UGL1); assay: Jarid1B in vitro enzyme inhibition assay (TR-FRET); type: biochemical; details: 0.8 nM Jarid1B, 300 nM H3K4me3-biotin peptide, 2 μM alpha-ketoglutaric acid
IC50 [1],IC50 [2],Compound
≤ 100 nM,≤ 100 nM,"CC(C)Oc1ccc(CNc2cnccc2C(=O)O)cc1 [Example 11, 3-{[4-(propan-2-yloxy)benzyl]amino}pyridine-4-carboxylic acid]"
≤ 100 nM,–,O=C(O)c1ccncc1NCc1ccc(CO)cc1 [Example 6]
